The values below are quoted from earlier work in US20220170859A1, “PARTICLE LABELING REAGENT, PARTICLE DYEING METHOD, AND MICROSCOPIC SYSTEM” (SONY GROUP CORPORATION, priority 2019, published 2022).

Protein sequences, listed by entry. Tags and fused reporters are not part of them. Residues count along the entry.
UniProt P02701, 25-152 limits assumed: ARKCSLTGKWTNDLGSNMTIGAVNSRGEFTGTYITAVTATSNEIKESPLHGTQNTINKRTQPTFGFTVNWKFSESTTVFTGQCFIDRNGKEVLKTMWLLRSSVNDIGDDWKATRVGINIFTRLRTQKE

The structures appear in SMILES notation.

This data set addresses avidin (Gallus gallus, UniProt P02701). The following applies: read-out: Dissociation constant; complex with avidin; cited from earlier work.

For `O=C(O)c1ccccc1N=Nc1ccc(O)cc1`, the Kd is 5.8 µM.
